B1: Gαo-GFP wild-type [human] / His6-RGS19 [not stated] (parent)
chain 1: MGCTLSAEERAALERSKAIEKNLKEDGISAAKDVKLLLLGAGESGKSTIVKQMKIIHEDGFSGEDVKQYKPVVYSNTIQSLAAIVRAMDTLGIEYGDKERKADAKMVCDVVSRMEDTEPFSAELLSAMMRLWGDSGIQECFNRSREYQLNDSAKYYLDSLDRIGAADYQPTEQDILRTRVKTTGIVETHFTFKNLHFRLFDVGGQRSERKKWIHCFEDVTAIIFCVALSGYDQVLHEDETTNRMHESLMLFDSICNNKFFIDTSIILFLNKKDLFGEKIKKSPLTICFPEYTGPNTYEDAAAYIQAQFESKNRSPNKEIYCHMTCATDTNNIQVVFDAVTDIIIANNLRGCGLY
chain 2: MPTPHEAEKQITGPEEADRPPSMSSHDTASPAAPSRNPCCLCWCCCCSCSWNQERRRAWQASRESKLQPLPSCEVCATPSPEEVQSWAQSFDKLMHSPAGRSVFRAFLRTEYSEENMLFWLACEELKAEANQHVVDEKARLIYEDYVSILSPKEVSLDSRVREGINKKMQEPSAHTFDDAQLQIYTLMHRDSYPRFLSSPTYRALLLQGPSQSSSEA

The variants in the first assay derive from B1. The assay can be described thus: co-immunoprecipitation (IP: GFP) with Western blot quantification. To be noted: N2a cells, mean ± SEM from 5 independent experiments, p = 0.0005 vs WT, parent: 1, read off a plot.
On to chain 1 Q52P, for which the ratio to parent (folds over WT) came out at 0.33.

Staying with this assay, now noted: N2a cells, mean ± SEM from 5 independent experiments, p = 0.0028 vs WT, parent: 1, read off a plot.
With chain 1 Q52R, the ratio to parent (folds over WT) was found to be 0.45.

The values above are taken from paper PMC8535069.
